# Experimental data as given in patent US20050260730A1, “CDK2/cyclin A crystals and uses thereof” (priority 2003, published 2005).
# Columns and labels:
# [1] = biological target: CDK2/cyclin A complex (human) (UniProt P24941); assay: cell-based or functional assay
# cyclin A (human) = cyclin A (human) (UniProt P20248); assay: competitive cyclin A binding assay
CDK2/cyclin A kinase activity IC50 [1] [µM],IC50 (cyclin A (human)) [µM],Substance
37,–,H-Cit-Cit-Leu-Ile-(p-F-Phe)-NH2 (peptide)
–,79,H-Cit-Cit-Leu-Ala-(p-F-Phe)-NH2 (peptide)
